Values joined by “and” are separate entries in the source; they are usually repeats but may differ in a detail not shown here. Equal entries are not always repeated. This is a selection; strong and weak results do not stand in their true shares. Some tests of the compounds listed are not included; inactive here does not mean inactive elsewhere. Results filed as inconclusive are left out. Active and inactive are the calls of the source. The call rests on the fitted dose curve; in most records, active means well fitted inhibition curve with a large enough effect; inconclusive means small, poorly fitted or top-dose-only effect; inactive means flat fitted curve, though single readings scatter.

Amino acid sequences for entries named in this document (tags omitted).
UniProt P00811, whole entry: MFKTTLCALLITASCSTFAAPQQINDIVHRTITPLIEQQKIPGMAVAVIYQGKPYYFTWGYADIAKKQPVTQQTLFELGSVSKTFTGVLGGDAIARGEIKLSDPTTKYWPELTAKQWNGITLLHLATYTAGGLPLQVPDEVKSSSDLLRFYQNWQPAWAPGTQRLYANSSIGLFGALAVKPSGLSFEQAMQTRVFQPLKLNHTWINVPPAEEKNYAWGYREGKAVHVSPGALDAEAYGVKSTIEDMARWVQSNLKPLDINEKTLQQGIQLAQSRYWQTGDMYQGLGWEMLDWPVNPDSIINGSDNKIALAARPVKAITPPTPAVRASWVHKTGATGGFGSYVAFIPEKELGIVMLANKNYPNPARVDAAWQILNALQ

The target of the experiment is Beta-lactamase (Escherichia coli (strain K12)) (UniProt P00811). Kind of experiment: qHTS Inhibitors of AmpC Beta-Lactamase (assay with detergent).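 Further: 0% = no-compound wells and -100% = no-enzyme wells; nearly all actives have a fitted effect of over 25% in size.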 The following applies: AmpC hydrolysis of nitrocefin, absorbance 480 nm, 0.01% Triton; at 114 µM (top of the series). (In general: Quantitative high-throughput screening tests each substance at several concentrations.)
Regarding `CN(C)C1(CNC(=O)c2ccc(Br)cc2)CCCCC1`, the activity change, negative = inhibition is inactive: -2.6%.

Take `COc1cc(C(=O)NCC2(N(C)C)CCCCC2)c([N+](=O)[O-])cc1OC`: the activity change, negative = inhibition was inactive: -1.72%.

Turning to `COc1ccc(C(=O)NCC2(N(C)C)CCCCC2)cc1Cl`, the activity change, negative = inhibition is inactive: -5.87%.

For `COc1cccc(C(=O)NCC2(N3CCCCC3)CCCCC2)c1`, the activity change, negative = inhibition was inactive: -6.63%.

In the case of `COc1ccc(Cl)cc1C(=O)NCC1(N(C)C)CCCCC1`, the activity change, negative = inhibition is inactive: -1.43%.

For `O=C(NCC1(N2CCCCC2)CCCCC1)c1cccc(Cl)c1`, the activity change, negative = inhibition is inactive: 2.5%.

As for `COc1cccc(C(=O)NCC2(N3CCOCC3)CCCCC2)c1`, the activity change, negative = inhibition is inactive: 19%.

For `CC(C)COc1ccc(C(=O)NCC2(N(C)C)CCCCC2)cc1`, the activity change, negative = inhibition is inactive: 21.1%.

Take `Cc1cccc(C(=O)NCC2(N(C)C)CCCCC2)c1`: the activity change, negative = inhibition was inactive: 2.69%.

Consider `COc1cc(C(=O)NCC2(N(C)C)CCCCC2)cc(OC)c1OC`, for which the activity change, negative = inhibition was inactive: 18.1%.

`COc1ccc(Br)c(C(=O)NCC2(N3CCCCC3)CCCCC2)c1`: the activity change, negative = inhibition is inactive: 1.14%.

Consider `CC(C)Oc1ccc(C(=O)NCC2(N(C)C)CCCCC2)cc1`, for which the activity change, negative = inhibition is inactive: 20.6% and inactive: -5.37%.

For the compound `O=C(NCC1(N2CCCCC2)CCCCC1)c1cc([N+](=O)[O-])ccc1Cl`, the activity change, negative = inhibition was inactive: -3.33%.

For `CN1[C@@H]2CC[C@H]1CC(OC(=O)C(O)(c1ccccc1)c1ccccc1)C2` (some centres not stated), the activity change, negative = inhibition is inactive: 1.33%.

Turning to `CC(C)N1C(=O)CC2(CCN(CCOC(=O)C(O)(c3ccccc3)c3ccccc3)CC2)C1=O`, the activity change, negative = inhibition is inactive: -11.1%.

As to `CCN(CC)CC(C)C(C)OC(=O)C(O)(c1ccccc1)c1ccccc1` (configuration not stated), the activity change, negative = inhibition is inactive: -7.96%.

As for `CN(C)C1(CNC(=O)c2cccc(Cl)c2)CCCCC1`, the activity change, negative = inhibition was inactive: 22.8%.

Regarding `COc1cc(SC)ccc1C(=O)NCC1(N(C)C)CCCCC1`, the activity change, negative = inhibition is inactive: 2.35%.

Take `CN(C)C1(CNC(=O)c2ccccc2F)CCCCC1`: the activity change, negative = inhibition is inactive: 21%.

Take `Cc1ccc(C(=O)NCC2(N3CCCCC3)CCCCC2)cc1`: the activity change, negative = inhibition is inactive: -5.49%.

Regarding `CN(C)C1(CNC(=O)c2ccccc2[N+](=O)[O-])CCCCC1`, the activity change, negative = inhibition is inactive: 17.6%.

As to `Cc1ccccc1C(=O)NCC1(N2CCCCC2)CCCCC1`, the activity change, negative = inhibition was inactive: -12.2%.

Take `CN(C)C1CCCC1OC(=O)C(O)(c1ccccc1)c1ccccc1` (configuration not stated): the activity change, negative = inhibition is inactive: 6.82%.

As to `CN(C)c1ccc(C(=O)NCC2(N(C)C)CCCCC2)cc1`, the activity change, negative = inhibition was inactive: -4.52%.

`CCCCOc1ccccc1C(=O)NCC1(N(C)C)CCCCC1`: the activity change, negative = inhibition is inactive: -5.59%.

Regarding `C=CCN1CCN(CCOC(=O)C(O)(c2ccccc2)c2ccccc2)CC1`, the activity change, negative = inhibition is inactive: 8.63%.

As for `O=C(NCC1(N2CCCCC2)CCCCC1)c1cc(F)c(F)cc1Cl`, the activity change, negative = inhibition was inactive: -2.34%.

Consider `Cc1cc(C(=O)NCC2(N3CCCCC3)CCCCC2)ccc1[N+](=O)[O-]`, for which the activity change, negative = inhibition is inactive: 2.29%.

For the compound `CCN1CCCC(OC(=O)C2(O)c3ccccc3C=Cc3ccccc32)C1` (configuration not stated), the activity change, negative = inhibition was inactive: -11.7%.

Turning to `O=C(NCC1(N2CCCCC2)CCCCC1)c1cccc(Br)c1`, the activity change, negative = inhibition was inactive: 0.232%.

For the compound `COc1ccc(C(=O)NCC2(N(C)C)CCCCC2)cc1`, the activity change, negative = inhibition is inactive: -10.2%.

As to `CCOc1cccc(C(=O)NCC2(N(C)C)CCCCC2)c1`, the activity change, negative = inhibition was inactive: 19%.

(Values after PubChem BioAssay AID485294 (National Center for Advancing Translational Sciences (NCATS), 2010).)
